Protein sequences, listed by entry. Tags and fused reporters are not part of them. Lines headed by an entry give the natural chain unless they say otherwise; changes in a name come on top.
UniProt Q06187: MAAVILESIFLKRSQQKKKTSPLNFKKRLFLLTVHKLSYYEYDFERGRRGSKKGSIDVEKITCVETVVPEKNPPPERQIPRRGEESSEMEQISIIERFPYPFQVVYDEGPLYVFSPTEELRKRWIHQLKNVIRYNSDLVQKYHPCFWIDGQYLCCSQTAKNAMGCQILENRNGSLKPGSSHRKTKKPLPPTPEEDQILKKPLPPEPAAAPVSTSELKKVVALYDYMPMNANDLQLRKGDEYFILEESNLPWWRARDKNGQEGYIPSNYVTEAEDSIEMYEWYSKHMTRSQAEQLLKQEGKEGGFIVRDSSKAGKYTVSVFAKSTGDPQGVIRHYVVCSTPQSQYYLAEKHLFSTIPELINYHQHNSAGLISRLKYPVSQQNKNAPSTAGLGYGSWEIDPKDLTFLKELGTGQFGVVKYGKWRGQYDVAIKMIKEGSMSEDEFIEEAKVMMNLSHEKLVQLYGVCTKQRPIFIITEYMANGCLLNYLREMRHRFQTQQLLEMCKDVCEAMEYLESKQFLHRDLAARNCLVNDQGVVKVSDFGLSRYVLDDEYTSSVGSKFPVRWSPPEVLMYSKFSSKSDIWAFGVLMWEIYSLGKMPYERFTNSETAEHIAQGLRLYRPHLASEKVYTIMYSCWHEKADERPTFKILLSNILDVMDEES

In patent US12415803B2, “Fused imidazopyridines as reversible inhibitors of Brutons Tyrosine Kinase (BTK)” (Merck Patent GmbH, priority 2018, dated 2025):

Assays:
[1] = molecular target: T1, Btk (Homo sapiens (Human), UniProt Q06187); assay: Time Dependent Human Whole Blood IC50 Assay; format: cell-based; settings: read-out: Assay C (IC50)
[2] = molecular target: full-length human BTK (Homo sapiens (Human), UniProt Q06187); assay: BTK IC50 Enzyme Assay (microfluidic off-chip mobility shift kinase assay); format: biochemical;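 note: Read-out separates phosphorylated peptide product from substrate by their charge-to-mass difference, with IC50 fitted from log inhibitor concentration against percent enzyme activity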
[3] = molecular target: T1, Btk; assay: Btk PBMC IC50 Cell Assay (anti-IgM-induced CD69 expression on B cells); format: cell-based;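 note: freshly isolated human PBMCs, IC50 from concentration-response of the share of CD19+ cells expressing CD69 after anti-IgM BCR stimulation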

For “5-tert-butyl-N-(2-{2-[3,5-dimethyl-1-(propan-2-yl)-1H-pyrazol-4-yl]-3H-imidazo[4,5-b]pyridin-7-yl}-6,7,8,9-tetrahydro-5H-benzo[7]annulen-5-yl)-1,3,4-oxadiazole-2-carboxamide [Compound 86]”, the IC50 [1] was 0.01 to 0.1 µM, the IC50 [2] was < 0.001 µM and the IC50 [3] was 0.001 to 0.01 µM.
